US20100099731A1, “Use of Endothelial Interrupters in the Treatment of Neurodegenerative Diseases” (Texas Tech University System, priority 2008, published 2010)

System: Rat neuronal cortical cell cultures
Settings: thrombin 100 nM or SNP 10 μM, 24 h

## sodium nitroprusside
  neuronal apoptosis (nucleosome ELISA): evoke neuronal cell death
